Laboratory results taken from patent US20050101623A1 (Pharmacia Corporation, priority 2003, published 2005).

By UniProt entry, the sequences of proteins in these tests, tags left out.
UniProt P49137, whole entry, species assumed: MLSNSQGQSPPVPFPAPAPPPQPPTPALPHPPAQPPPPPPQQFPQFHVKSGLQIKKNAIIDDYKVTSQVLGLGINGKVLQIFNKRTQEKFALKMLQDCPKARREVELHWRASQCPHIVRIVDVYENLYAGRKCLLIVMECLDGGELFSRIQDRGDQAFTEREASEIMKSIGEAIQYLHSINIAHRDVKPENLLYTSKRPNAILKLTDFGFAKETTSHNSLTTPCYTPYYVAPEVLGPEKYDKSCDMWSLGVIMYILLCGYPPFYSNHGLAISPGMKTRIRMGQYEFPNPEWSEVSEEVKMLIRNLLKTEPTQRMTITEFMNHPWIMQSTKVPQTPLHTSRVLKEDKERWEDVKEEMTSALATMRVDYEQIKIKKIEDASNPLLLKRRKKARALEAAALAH

molecular target: Recombinant MAPKAPK2 (MK-2) (Homo sapiens, UniProt P49137); assay: Determination of MK-2 IC50 (phosphorylation of HSP-peptide, anion exchange resin capture assay); assay type: biochemical; details: MK-2 Avg. IC50, additional values are replicate IC50 experiments

Q: `COc1ccc2[nH]c3c(c2c1)C1CCN(C1)C3C(=O)OC(C)C` (stereo not shown) [No. 42, 1-adamantyl 7-methoxy-3,4,5,10-tetrahydro-1H-2,5-methanoazepino[3,4-b]indoie-1-carboxylate hydrochloride] was tested. Which IC50 did it give?
A: 9.85 µM

Q: With `COc1ccc2[nH]c3c(c2c1)C1CCN(C1)C3C(=O)OC1C(C)(C)CCCC1(C)C` (stereo not shown) [compound 43, 2,2,6,6-tetramethylcyclohexyl 7-methoxy-3,4,5,10-tetrahydro-1H-2,5-methanoazepino[3,4-b]indole-1-carboxylate trifluoroacetate] as the molecule, how does the IC50 read?
A: 151 µM

Q: How did the IC50 turn out when `COCCNC(=O)C1c2[nH]c3ccc(OC)cc3c2C2CCN1C2` (stereo not shown) [compound 49] was run?
A: > 200 µM

Q: `COc1ccc2[nH]c3c(c2c1)C1CCN(C1)C3C(=O)OC1CCCCC1` (stereo not shown) [hydrochloride] was tested. Which IC50 did it give?
A: 57.3 µM

same assay, conditions: additional values are replicate IC50 experiments; read-out: MK-2 Avg. IC50

Q: How did the IC50 turn out when `CSc1ccc2[nH]c3c(c2c1)C1CCN(C1)C3C(=O)O` (stereo not shown) [No. 4, 7-(methylthio)-3,4,5,10-tetrahydro-1H-2,5-methanoazepino[3,4-b]indole-1-carboxylic acid] was run?
A: 0.79 µM

Q: `COC(=O)C1c2[nH]c3ccc(O)cc3c2C2CCN1C2` (stereo not shown) [No. 44, 7-methoxy-N-methyl-3,4,5,10-tetrahydro-1H-2,5-methanoazepino[3,4-b]indole-1-carboxamide] was tested. Which IC50 did it give?
A: 5.38 µM

Q: Which IC50 does the source give for `COc1ccc2[nH]c3c(c2c1)C1CCN(C1)C3C(=O)OC12CC3CC(CC(C3)C1)C2` (stereo not shown) [compound 42] here?
A: 149 µM

Counter-ions that a name gives are not always drawn.
